# Antibody variant affinities, Ab-14 light chain, assay B

Source: Li et al. 2023 (doi:10.1038/s41467-023-39022-2), MIT Lincoln Laboratory and A-Alpha Bio; data file from the FLAb repository.

Antigen: PDVDLGDISGINAS, a 14-residue peptide of the SARS-CoV-2 spike HR2 region.

Parent: Ab-14, a human scFv built as VH, a 15-residue (Gly4Ser)3 linker, VL. Only the CDRs of the light chain vary.
VH: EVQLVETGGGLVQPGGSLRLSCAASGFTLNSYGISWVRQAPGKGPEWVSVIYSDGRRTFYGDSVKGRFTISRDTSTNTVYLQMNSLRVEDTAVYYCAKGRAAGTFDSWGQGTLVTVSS
VL: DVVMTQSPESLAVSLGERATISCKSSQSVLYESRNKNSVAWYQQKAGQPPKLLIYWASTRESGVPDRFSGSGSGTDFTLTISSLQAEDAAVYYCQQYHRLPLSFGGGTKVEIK

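The starting antibody came from a phage panning campaign against this peptide. The variants were designed computationally from a first round of random CDR variants and then made and measured. Several design methods are mixed in this list. The assay is AlphaSeq: two haploid yeast populations carry antibody and antigen on their surface. The frequency of each diploid, read from paired DNA barcodes, reflects how well the two displayed proteins bind. Scores were corrected for input abundance and mapped to Kd with protein pairs of known affinity run in the same pool. The assay was run in six technical replicates.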

Each variant's VL is given in full.
This list holds designs with at most six substitutions.
Values are apparent Kd, the geometric mean of the replicates that gave a signal; lower means stronger binding.
The range of this assay differs from that of the first round, and the authors advise against merging the two.

The variant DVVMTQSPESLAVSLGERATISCKSSQSVLYESRNKNSVAWYQQKAGQPPKLLIYDSSTRESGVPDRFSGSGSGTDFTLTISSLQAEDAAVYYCQQYHRLPLSFGGGTKVEIK showed 1.5 nM (6 of 6 replicates). For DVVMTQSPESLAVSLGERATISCKSAQSVLYESRNKNNVAWYQQKAGQPPKLLIYHASTREDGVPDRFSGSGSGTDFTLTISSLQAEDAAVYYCQQYARLPLSFGGGTKVEIK, the assay gave 520 pM (6 of 6 replicates). The variant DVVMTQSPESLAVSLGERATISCKLSQSVWYESRNKNSVAWYQQKAGQPPKLLIYFASTRESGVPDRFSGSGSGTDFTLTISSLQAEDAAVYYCQQYHRLPLSFGGGTKVEIK showed 16 nM (6 of 6 replicates). For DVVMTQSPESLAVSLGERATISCKLRQSTLYESRNDNSVAWYQQKAGQPPKLLIYWASTRESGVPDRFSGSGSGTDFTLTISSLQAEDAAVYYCQQYHRLPLSFGGGTKVEIK, the assay gave 28 nM (6 of 6 replicates). With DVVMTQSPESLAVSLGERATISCKLRQSTLYESRNKNSVAWYQQKAGQPPKLLIYNASTRESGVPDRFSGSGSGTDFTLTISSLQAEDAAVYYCQQYHRLPLTFGGGTKVEIK the result was 1.1 nM (6 of 6 replicates). For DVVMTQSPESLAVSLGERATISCKLSQSVLYEQRNKNSVAWYQQKAGQPPKLLIYNASTRESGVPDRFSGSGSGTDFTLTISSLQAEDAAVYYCQQYHRLPLSFGGGTKVEIK, the assay gave 600 pM (6 of 6 replicates). For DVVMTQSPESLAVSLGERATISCKLSQSVWYESRNKNNVAWYQQKAGQPPKLLIYNASTRESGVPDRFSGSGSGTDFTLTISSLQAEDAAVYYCQQYHRLPLSFGGGTKVEIK, the assay gave 2.9 nM (6 of 6 replicates).

For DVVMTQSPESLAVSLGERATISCKSSQSVLMESLNKNSVAWYQQKAGQPPKLLIYHASQRIWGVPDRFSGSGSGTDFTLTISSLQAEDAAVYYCQQYHRLPLSFGGGTKVEIK, the assay gave 14 nM (6 of 6 replicates). For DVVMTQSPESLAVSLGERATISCKASQSALQEMRNKNSVAWYQQKAGQPPKLLIYSASTRESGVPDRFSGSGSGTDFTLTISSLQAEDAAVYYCQQYHRLPLSFGGGTKVEIK, the assay gave 1.1 nM (6 of 6 replicates). With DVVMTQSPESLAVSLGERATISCKLSQSDLYESRNSNSVAWYQQKAGQPPKLLIYHASTRESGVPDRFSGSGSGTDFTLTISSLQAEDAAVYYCQQYHRLPLSFGGGTKVEIK the result was 910 pM (6 of 6 replicates). With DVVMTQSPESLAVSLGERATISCKMPQGVLYESRNKNSVAWYQQKAGQPPKLLIYGASTRESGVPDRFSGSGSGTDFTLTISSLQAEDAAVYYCQQYHRLPLSFGGGTKVEIK the result was 500 pM (6 of 6 replicates). For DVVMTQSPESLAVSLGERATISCKLSQSWLYEERNKNNVAWYQQKAGQPPKLLIYSASTREMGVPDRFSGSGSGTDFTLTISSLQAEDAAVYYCQQYHRLPLSFGGGTKVEIK, the assay gave 230 pM (6 of 6 replicates). With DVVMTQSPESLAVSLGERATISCKLMQSVPYESRNKNSVAWYQQKAGQPPKLLIYEASTRESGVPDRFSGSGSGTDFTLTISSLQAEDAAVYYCQQYHRLPLSFGGGTKVEIK the result was 400 pM (6 of 6 replicates). The variant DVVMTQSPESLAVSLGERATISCKSSQSVLYESRNKNSVAWYQQKAGQPPKLLIYWASTRESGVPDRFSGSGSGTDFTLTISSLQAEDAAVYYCQQCHRCPLSFGGGTKVEIK gave 17 nM (1 of 6 replicates).

For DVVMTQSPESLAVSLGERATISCKLSQSVLYEDRNKNNVAWYQQKAGQPPKLLIYNASTRMSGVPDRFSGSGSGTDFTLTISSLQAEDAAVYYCQQYHRLPLSFGGGTKVEIK, the assay gave 470 pM (6 of 6 replicates). For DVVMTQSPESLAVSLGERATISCKSSQSVPYETRNKNSVAWYQQKAGQPPKLLIYWASTRESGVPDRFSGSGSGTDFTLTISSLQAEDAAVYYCQQYHRLPLSFGGGTKVEIK, the assay gave 240 nM (6 of 6 replicates). For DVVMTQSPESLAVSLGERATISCKSSQSVPYESQNKNSVAWYQQKAGQPPKLLIYWASTRESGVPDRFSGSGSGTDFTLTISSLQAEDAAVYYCQQYHRLPLSFGGGTKVEIK, the assay gave 99 nM (6 of 6 replicates). The variant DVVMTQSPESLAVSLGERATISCKSSISTLYESRMKNSVAWYQQKAGQPPKLLIYEASTRESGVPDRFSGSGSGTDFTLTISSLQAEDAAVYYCQQYHRLPLSFGGGTKVEIK showed 11 nM (6 of 6 replicates). The variant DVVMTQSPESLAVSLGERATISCKSPQGALYESRNKNSVAWYQQKAGQPPKLLIYGASTRESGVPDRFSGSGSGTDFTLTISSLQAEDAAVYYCQQYHRLPLSFGGGTKVEIK gave 1.6 nM (6 of 6 replicates).

Repeated from above, the 2 best binders with a signal in all replicates:

| VL | Kd | seen in |
|---|---|---|
| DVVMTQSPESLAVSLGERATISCKLSQSWLYEERNKNNVAWYQQKAGQPPKLLIYSASTREMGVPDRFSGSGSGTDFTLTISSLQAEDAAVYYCQQYHRLPLSFGGGTKVEIK | 230 pM | 6/6 |
| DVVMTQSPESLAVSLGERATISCKLMQSVPYESRNKNSVAWYQQKAGQPPKLLIYEASTRESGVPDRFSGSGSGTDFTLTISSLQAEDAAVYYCQQYHRLPLSFGGGTKVEIK | 400 pM | 6/6 |

The parent sequence was in this pool as ten entries: three were never detected, three once, and four in most replicates, with averages from 2.2 nM to 240 nM.
Three control strains display no target. For all light chain designs, 4% of the pairings with them gave a signal, with a median of 430 nM and one signal in twenty below 38 nM, so weak values seen in few replicates may be background.
The authors' rule: three or more of the six replicates give a measured affinity, fewer mean a poor binder.